Experiments:
SW620 (CRC, MSS) = experiment: Cell proliferation inhibition assay (CellTiter-Glo), SW620; settings: read-out: SW620 (CRC, MSS), 120 hours
[1] = target: WRN protein (AA N517-P1238) (Homo sapiens, UniProt Q14191); experiment: In vitro WRN enzymatic activity assay (ADP-Glo ATPase assay); settings: read-out: ADP-Glo; 10 nM WRN enzyme, 3 hours pre-incubation at 25°C, ssDNA substrate
[2] = Pharmacokinetics in balb/c nude mice (IV and PO); settings: for F: 10 mg/kg (vs IV 1 mg/kg)
SW48 (CRC, MSI) = experiment: Cell proliferation inhibition assay (CellTiter-Glo), SW48; settings: read-out: SW48 (CRC, MSI), 120 hours
HCT116 (WRN-KO) = experiment: Cell proliferation inhibition assay (CellTiter-Glo), HCT116 WRN-KO; settings: read-out: HCT116 (WRN-KO), 120 hours
[3] = Pharmacokinetics in NOD SCID mice; settings: PO, 20 mg/kg

Chains of the proteins cited; added tags and fusions are not shown. Residues count along the entry.
UniProt Q14191, 517-1238 limits assumed: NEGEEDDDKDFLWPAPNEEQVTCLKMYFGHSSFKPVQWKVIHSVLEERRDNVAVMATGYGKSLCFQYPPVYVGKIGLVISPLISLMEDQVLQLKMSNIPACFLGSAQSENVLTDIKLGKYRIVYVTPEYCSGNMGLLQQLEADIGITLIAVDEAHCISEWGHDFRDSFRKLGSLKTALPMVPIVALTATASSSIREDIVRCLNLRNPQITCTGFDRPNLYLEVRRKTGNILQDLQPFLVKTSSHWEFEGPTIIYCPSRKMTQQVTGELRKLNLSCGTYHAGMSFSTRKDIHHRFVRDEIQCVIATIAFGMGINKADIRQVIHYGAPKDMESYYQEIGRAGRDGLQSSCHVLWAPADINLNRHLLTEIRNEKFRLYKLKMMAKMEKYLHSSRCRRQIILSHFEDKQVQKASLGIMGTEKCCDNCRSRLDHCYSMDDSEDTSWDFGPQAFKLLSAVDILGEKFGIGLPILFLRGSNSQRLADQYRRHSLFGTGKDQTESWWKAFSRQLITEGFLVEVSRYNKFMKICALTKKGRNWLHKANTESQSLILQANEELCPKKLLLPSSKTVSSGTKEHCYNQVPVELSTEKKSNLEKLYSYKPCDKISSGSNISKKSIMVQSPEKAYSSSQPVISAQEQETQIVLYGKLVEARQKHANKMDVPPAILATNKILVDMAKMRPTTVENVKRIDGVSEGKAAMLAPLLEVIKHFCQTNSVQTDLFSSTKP

Compound | IC50 (SW620 (CRC, MSS)) [nM] | IC50 [1] [nM] | AUC ([2]; IV, 1 mg/kg) [ng·h/mL] | T1/2 ([2]; IV, 1 mg/kg) [h] | AUC ([2]; PO, 10 mg/kg) [ng·h/mL] | Cmax ([2]; PO, 10 mg/kg) [ng/mL] | F ([2]; PO) [%] | IC50 (SW48 (CRC, MSI)) [nM] | IC50 (HCT116 (WRN-KO)) [nM] | AUC [3] [ng·h/mL] | Cmax [3] [ng/mL]
CCC(=O)N1CC=C(c2nc3n(CC(=O)Nc4ccc(C(F)(F)F)cc4Cl)c(CC)c(N4CCN(C(=O)c5ncnc(C)c5O)CC4)c(=O)n3n2)CC1 | > 10000 | 10.1 | – | – | – | – | – | 30 | > 10000 | – | –
CCc1c(N2CCN(C(=O)c3ncnc(C)c3O)CC2)c(=O)n2nc(C3=CCOCC3)nc2n1CC(=O)Nc1ccc(C(F)(F)F)cc1Cl | – | – | – | – | – | – | – | – | – | 24247 | 7557
[2H]C1([2H])CCC(c2nc3n(CC(=O)Nc4ccc(C(F)(F)F)c5ccccc45)c(CC)c(N4CCN(C(=O)c5ncnc(C)c5O)CC4)c(=O)n3n2)=CCO1 | > 10000 | 4.7 | – | – | – | – | – | 49.5 | – | – | –
CCc1c(N2CCN(C(=O)c3ncnc(C)c3O)CC2)c(=O)n2nc(C3=CCN(C(=O)N(C)C)CC3)nc2n1CC(=O)Nc1ccc(C(F)(F)F)cc1Cl | > 10000 | 5.21 | – | – | – | – | – | 50.6 | – | – | –

Second part, the compound after the results:

IC50 (SW620 (CRC, MSS)) [nM] | IC50 [1] [nM] | AUC ([2]; IV, 1 mg/kg) [ng·h/mL] | T1/2 ([2]; IV, 1 mg/kg) [h] | AUC ([2]; PO, 10 mg/kg) [ng·h/mL] | Cmax ([2]; PO, 10 mg/kg) [ng/mL] | F ([2]; PO) [%] | IC50 (SW48 (CRC, MSI)) [nM] | IC50 (HCT116 (WRN-KO)) [nM] | AUC [3] [ng·h/mL] | Cmax [3] [ng/mL] | Compound
> 10000 | 1.64 | 1349 | 1.03 | 1358 | 1153 | 10.1 | 83.2 | – | – | – | [2H]C1([2H])CCC(c2nc3n(CC(=O)Nc4cc(C(F)(F)F)c(C)s4)c(CC)c(N4CCN(C(=O)c5ncnc(C)c5O)CC4)c(=O)n3n2)=CCO1
> 10000 | 3.36 | 2144 | 1.33 | 11178 | 5407 | 53.0 | 34.1 | – | 48526 | 8547 | [2H]C1([2H])CCC(c2nc3n(CC(=O)Nc4ccc(C(F)(F)F)cc4Cl)c(CC)c(N4CCN(C(=O)c5ncnc(C)c5O)CC4)c(=O)n3n2)=CCO1
– | 2.76 | 1201 | 1.34 | 4201 | 1264 | 33.8 | – | – | – | – | CCc1c(N2CCN(C(=O)c3ncnc(C)c3O)CC2)c(=O)n2nc(C3=CCCCOC3)nc2n1CC(=O)Nc1ccc(C(F)(F)F)cc1Cl
> 10000 | 2.3 | – | – | – | – | – | 28.4 | – | – | – | CCc1c(N2CCN(C(=O)c3ncnc(C)c3O)CC2)c(=O)n2nc(C3=CCC(C(=O)N4CCC(F)(F)CC4)CC3)nc2n1CC(=O)Nc1ccc(C(F)(F)F)cc1Cl (stereo not drawn)
> 10000 | 2.19 | – | – | – | – | – | 4.8 | – | – | – | [2H]C1([2H])CCC(c2nc3n4c(c(N5CCN(C(=O)c6ncnc(C)c6O)[C@H]6CC[C@@H]65)c(=O)n3n2)C(C)CC4C(=O)Nc2ccc(C(F)(F)F)cc2Cl)=CCO1 (single isomer, unassigned)
